Earlier results on one molecule are cited in US5792622A, “Assay for chemicals” (priority 1995, dated 1998).

The series relates to fish (trout fingerlings). The settings on record: Table 8, trout fingerlings; cited from earlier work.

Take `c1ccccc1` [Benzene]: the “Fish LD50 (50% death of the fish)” value is 10-100 ppm.
